Calls of active or inactive are those of the source. No cut-off for these calls is given here.
Biological target: Receptor-interacting serine/threonine-protein kinase 2 (Homo sapiens, UniProt O43353)
Experiment: Inhibition of N-terminal polyHis-tagged human RIPK2 (8 to 310 residues) expressed in Sf9 cells using MBP as substrate upto 10 uM preincubated for 15 mins followed by ATP addition measured after 90 mins by ADP-Glo assay
Details: time 105.0 min

By UniProt entry, the sequences of proteins in these tests, tags left out.
UniProt O43353, whole entry: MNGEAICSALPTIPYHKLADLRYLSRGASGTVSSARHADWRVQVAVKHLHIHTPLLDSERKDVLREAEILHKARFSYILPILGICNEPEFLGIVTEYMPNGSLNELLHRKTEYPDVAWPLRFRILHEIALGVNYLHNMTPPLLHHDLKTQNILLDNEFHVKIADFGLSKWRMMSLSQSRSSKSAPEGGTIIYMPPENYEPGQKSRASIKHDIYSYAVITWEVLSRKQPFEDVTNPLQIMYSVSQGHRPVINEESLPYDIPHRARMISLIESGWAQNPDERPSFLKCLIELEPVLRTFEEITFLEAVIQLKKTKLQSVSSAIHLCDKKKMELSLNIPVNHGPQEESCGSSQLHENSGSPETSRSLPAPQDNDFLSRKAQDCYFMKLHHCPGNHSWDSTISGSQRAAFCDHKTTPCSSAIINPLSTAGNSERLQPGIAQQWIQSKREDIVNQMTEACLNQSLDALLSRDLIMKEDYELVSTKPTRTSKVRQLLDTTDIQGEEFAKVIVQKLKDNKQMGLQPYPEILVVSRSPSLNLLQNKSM

| inhibition | SMILES |
| --- | --- |
| inactive | Cc1nc(-c2cc3c(Nc4ccc5scnc5c4)ncnc3cc2Cl)sc1C |
| inactive | Cc1csc(-c2cc3c(Nc4ccc5scnc5c4)ncnc3cc2Cl)n1 |
| inactive | Clc1cc2ncnc(Nc3ccc4scnc4c3)c2cc1-c1ccccc1 |
